Literature values as cited in publication PMC9085562.

By UniProt entry, the sequences of proteins in these tests, tags left out. Residues count along the entry.
UniProt P06241, 79-146: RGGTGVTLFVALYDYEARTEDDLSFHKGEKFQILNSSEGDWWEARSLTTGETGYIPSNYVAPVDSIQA

Molecular target: class I peptide

Substance: Fyn SH3 (from UniProt P06241)
- Kd: 180 nM
